# AlphaSeq binding of Ab-14 light chain variants to a spike HR2 peptide

Source: Li et al. 2023 (doi:10.1038/s41467-023-39022-2), MIT Lincoln Laboratory and A-Alpha Bio; data file from the FLAb repository.

Target: peptide PDVDLGDISGINAS, taken from heptad repeat 2 (HR2) of SARS-CoV-2 spike.

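Designed CDR sequences, proposed from the first random library and measured here. Group labels follow the data file (Ctrl: baseline library sampled from a position-specific scoring matrix, with some repeated check sequences; En: ensemble of fine-tuned language models; GP: Gaussian process model; HC: hill climbing; Gen: genetic algorithm; Gibbs: Gibbs sampling; a sequence that several methods proposed may carry one label only). In AlphaSeq, yeast of one mating type display the scFv and yeast of the other type display the target. Pairs that bind mate more often; barcode pairs of the diploids are counted by sequencing. Each replicate has its own calibration line, from reference interactions of the BCL2 family. Each pool was mated in six replicate cultures.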

The variants keep the heavy chain, the linker and the frameworks of Ab-14 (scFv order VH, the linker GGGGSGGGGSGGGGS, VL).
VH: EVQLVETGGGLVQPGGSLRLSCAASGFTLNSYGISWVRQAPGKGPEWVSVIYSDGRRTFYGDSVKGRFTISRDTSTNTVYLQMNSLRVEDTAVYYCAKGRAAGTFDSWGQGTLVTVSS
VL: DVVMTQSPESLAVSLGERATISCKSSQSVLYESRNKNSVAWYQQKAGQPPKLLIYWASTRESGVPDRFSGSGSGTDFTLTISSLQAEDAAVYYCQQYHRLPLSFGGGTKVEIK

The parent's light chain CDRs are KSSQSVLYESRNKNSVA, WASTRES, QQYHRLPLS; each variant's own CDRs replace them letter for letter.
Values are apparent Kd, the geometric mean of the replicates that gave a signal; lower means stronger binding.
A pair that was not seen in any replicate is written "not detected"; this usually means weak binding, but a binder can also be missed.
A sequence that the file lists under several names has all its replicates pooled.
Of ten entries with the parent sequence, four were seen in most replicates (averages 2.2 nM to 240 nM), three in one and three in none, so single entries are noisy.
Empty control strains, which show no peptide, gave a signal in 4% of pairings with all light chain designs; the median was 430 nM and 95% of these signals were weaker than 38 nM. No background was subtracted. The control count says in how many pairings with the empty strains this scFv gave a signal.
The range of this assay differs from that of the first round, and the authors advise against merging the two.
The authors' rule: three or more of the six replicates give a measured affinity, fewer mean a poor binder.

Kd (apparent) | replicates with signal | empty controls | CDR-L1 | CDR-L2 | CDR-L3 | group
23 nM | 6 of 6 | 0 of 18 | MISQVMNTLTRQGNNVA | DLQNRED | QQYFRLPLS | En_Gen
1.0 nM | 6 of 6 | 0 of 18 | DSSQSWLYESRNKNSVA | GASQRES | QQYHRLPLS | GP_HC
2.4 nM | 6 of 6 | 2 of 18 | KMDQSVLYESRNKNSVA | WASTRER | QQYGRLPLS | Ctrl
2.8 nM | 6 of 6 | 0 of 18 | KLMGSQQYESRWKNAVA | EASTRES | QQYHRLPLS | GP_Gibbs
14 nM | 1 of 6 | 0 of 18 | LIMKFMSQEGSARNNVA | GDTKLAQ | QHYHRLPLS | En_Gibbs
170 nM | 6 of 6 | 0 of 18 | KSLWSVLYESNNVNSVA | HASTRED | QQYHRLPLS | GP_HC
3.4 nM | 6 of 6 | 0 of 18 | KRTQSWLYESRNKNSVA | DASTRES | QQYHRLPLS | Ctrl
3.7 nM | 6 of 6 | 1 of 18 | NLVEMEGTNQTKMGNIA | SVDQRMD | QQYQRLPLI | En_Gibbs
470 pM | 6 of 6 | 1 of 18 | KVSQSVLYESRNKNNVA | NASQRES | QQYHRLPLS | GP_Gen
20 nM | 6 of 6 | 1 of 18 | KVQNGLERGNQGYSAVA | DVTEKGA | QQYLQLPLM | En_Gibbs
7.2 nM | 6 of 6 | 2 of 18 | KFSPSVLYESRLKNSVA | NASTRES | QQYHRLPLS | GP_HC
410 pM | 6 of 6 | 0 of 18 | HVSPSELYESRNKNSVA | NASTRES | QQYHRLPLS | GP_HC
2.0 nM | 6 of 6 | 1 of 18 | ALSQSELYESRNWNSVA | NASTRED | QQYHRLPLS | GP_Gibbs
650 pM | 6 of 6 | 0 of 18 | KLSQSVPYEERNKNSVA | NASTRES | QQYHRLPLS | GP_Gen
1.9 nM | 6 of 6 | 2 of 18 | KLPQSNLYESRNKNSVA | NASQRES | QQYHRLPLS | GP_Gen
5.0 nM | 6 of 6 | 0 of 18 | HISSMDMHDGGIIHNVA | DTGVTSR | QQYARLPLI | En_Gibbs
2.2 nM | 6 of 6 | 0 of 18 | KLSGEMLYESRNKNSVA | HASLRES | QDYHRLPLQ | GP_Gibbs
5.3 nM | 6 of 6 | 2 of 18 | KVRQSTLYESRNKNSVA | WASQRES | QQYHRLPLS | GP_HC
2.4 nM | 6 of 6 | 0 of 18 | KVRQSQLYESRNKNSVA | NASTRES | QQYHRLPLS | GP_HC
6.0 nM | 6 of 6 | 0 of 18 | IVSQLMLWGMHAKNSIA | EAETRIN | QQYHHLPLI | En_Gen
12 nM | 6 of 6 | 1 of 18 | KISQSVLYESRNKNSVA | WASTRES | QQYHRLPLW | Ctrl
3.8 nM | 6 of 6 | 1 of 18 | NLQGMTAHETVKEKNIA | ERSTREQ | QQYNRLPLS | En_Gen
500 pM | 6 of 6 | 2 of 18 | KLSQSDLYESRNKNNVA | EASTRCS | QQYHRLPLS | GP_Gen
13 nM | 30 of 30 | 7 of 90 | KYSQSVLEESRNKNSIA | WASHREH | QQYDRLPLS | Ctrl
5.2 nM | 6 of 6 | 0 of 18 | TISQMTSLFSQSINNVA | EVSTREK | QQYDRLPLI | En_Gen
not detected | 0 of 6 | 2 of 18 | KSSQEVLYESRNKNSVA | WASTRED | QQYHRLPLS | Ctrl
25 nM | 6 of 6 | 1 of 18 | MISQLFMYGSRNYNSIA | QAEQREK | QQYDRLPLE | En_HC
180 nM | 6 of 6 | 1 of 18 | NLKENNVDNQTFYSNIA | EADQREL | QQYYRLPLQ | En_Gibbs
150 nM | 5 of 6 | 0 of 18 | FFSLIQDSYGEANNSIA | ERNTKAP | QQYGRLPLV | En_Gibbs
29 nM | 6 of 6 | 0 of 18 | KSSSSVLGESRNANSVA | WASTRES | QQYHRLPLS | Ctrl
86 nM | 3 of 6 | 1 of 18 | KTSQSVLYESRNKNSVA | QRSTRES | QQYHRLPLS | Ctrl
820 pM | 6 of 6 | 1 of 18 | KVSQSVLYEERNKNSVA | QASQRES | QQYHRLPLS | GP_Gen
2.4 nM | 6 of 6 | 1 of 18 | TISQMFLGESRHRNSVA | QASTRES | QSYDRLPLS | En_HC
11 nM | 6 of 6 | 3 of 18 | TLYGLSVSMSKNTNNVA | EMTTREK | QQYDRLPLI | En_Gen
6.8 nM | 6 of 6 | 3 of 18 | QLPFERGDGYLEKNNVA | EGTESSH | QQYMRLPLT | En_Gibbs
17 nM | 5 of 6 | 3 of 18 | QLEFYDVQGTANWHAIA | EGSQLGQ | QQYFHLPLG | En_Gibbs
4.4 nM | 6 of 6 | 2 of 18 | KVAQGIFDGKRHSHSIA | EVSELCD | QQYSRLPLE | En_Gibbs
2.0 nM | 6 of 6 | 1 of 18 | KSRQSWLYESRNFNSVA | GASTRES | QQYHRLPLS | GP_HC
2.8 nM | 6 of 6 | 0 of 18 | KLYQSEWYESRMCNSVA | NASVRES | QQYHRLPLS | GP_Gibbs
34 nM | 6 of 6 | 1 of 18 | NVRMSLGYVQNVGSAVA | EASQVEM | QQYYTLPLT | En_Gibbs
3.2 nM | 6 of 6 | 0 of 18 | KSLQMWLYESRNKNSVA | HASTRED | QQYHQLPLS | GP_HC
6.4 nM | 6 of 6 | 0 of 18 | HISIKLPGNWKMMDSVA | HSELRAE | QQYDRLPLM | En_Gibbs
36 nM | 6 of 6 | 3 of 18 | KSSQSSLYESRNKNSVA | WADTRES | QQYHRLPLS | Ctrl
not detected | 0 of 6 | 0 of 18 | KSSPSVLYEGRNKNSVA | WASTRES | QQYHRLPES | Ctrl
710 pM | 6 of 6 | 1 of 18 | KMSQSVLMESRNKNSVA | DASTRES | QQYHRLPLS | GP_Gen
1.0 nM | 6 of 6 | 3 of 18 | KLSGSVLGESRNKNSVA | SADTRLM | QQYHRLPLS | GP_Gibbs
51 nM | 5 of 6 | 0 of 18 | KWSSSVDYESRNKNSVA | WASRRES | QQYHRLPLS | Ctrl
210 nM | 1 of 6 | 2 of 18 | KSSQSTIYESRNKNSVA | WASTREL | QQYHRLPLS | Ctrl
870 pM | 6 of 6 | 0 of 18 | KFSQSVLYESRTKNGVA | EASTRES | QQYHRLPLS | GP_HC
2.7 nM | 6 of 6 | 1 of 18 | KFSQSWLYESRNKNSVA | NASTRES | QQYRRLPLS | GP_Gibbs
1.2 nM | 6 of 6 | 0 of 18 | KLRQSTKYESRNQNSVA | EASTRES | QQYHRLPLS | GP_HC

Picked from the list: the 8 lowest averages where every replicate gave a value.

| CDR-L1 | CDR-L2 | CDR-L3 | group | Kd (apparent) | replicates with signal | empty controls |
|---|---|---|---|---|---|---|
| HVSPSELYESRNKNSVA | NASTRES | QQYHRLPLS | GP_HC | 410 pM | 6 of 6 | 0 of 18 |
| KVSQSVLYESRNKNNVA | NASQRES | QQYHRLPLS | GP_Gen | 470 pM | 6 of 6 | 1 of 18 |
| KLSQSDLYESRNKNNVA | EASTRCS | QQYHRLPLS | GP_Gen | 500 pM | 6 of 6 | 2 of 18 |
| KLSQSVPYEERNKNSVA | NASTRES | QQYHRLPLS | GP_Gen | 650 pM | 6 of 6 | 0 of 18 |
| KMSQSVLMESRNKNSVA | DASTRES | QQYHRLPLS | GP_Gen | 710 pM | 6 of 6 | 1 of 18 |
| KVSQSVLYEERNKNSVA | QASQRES | QQYHRLPLS | GP_Gen | 820 pM | 6 of 6 | 1 of 18 |
| KFSQSVLYESRTKNGVA | EASTRES | QQYHRLPLS | GP_HC | 870 pM | 6 of 6 | 0 of 18 |
| DSSQSWLYESRNKNSVA | GASQRES | QQYHRLPLS | GP_HC | 1.0 nM | 6 of 6 | 0 of 18 |